Columns and labels:
[1] = target: TS; design: method as in PMID 10856298; conditions: read-out: Ki against TS; cited from earlier work
[2] = target: T1, AtSHMT2 (Arabidopsis thaliana, UniProt Q94C74); test: SHMT forward reaction (serine + THF), coupled assay, initial velocity; format: biochemical; conditions: 30 °C
T1 construct: the protein N-truncated at E41; The open reading frames coding for AtSHMT2 41–517 fragment; His6 (N, cleaved yes); made in house; host or cells: E. coli BL21 Gold
T1 sequence (Q94C74 41-517): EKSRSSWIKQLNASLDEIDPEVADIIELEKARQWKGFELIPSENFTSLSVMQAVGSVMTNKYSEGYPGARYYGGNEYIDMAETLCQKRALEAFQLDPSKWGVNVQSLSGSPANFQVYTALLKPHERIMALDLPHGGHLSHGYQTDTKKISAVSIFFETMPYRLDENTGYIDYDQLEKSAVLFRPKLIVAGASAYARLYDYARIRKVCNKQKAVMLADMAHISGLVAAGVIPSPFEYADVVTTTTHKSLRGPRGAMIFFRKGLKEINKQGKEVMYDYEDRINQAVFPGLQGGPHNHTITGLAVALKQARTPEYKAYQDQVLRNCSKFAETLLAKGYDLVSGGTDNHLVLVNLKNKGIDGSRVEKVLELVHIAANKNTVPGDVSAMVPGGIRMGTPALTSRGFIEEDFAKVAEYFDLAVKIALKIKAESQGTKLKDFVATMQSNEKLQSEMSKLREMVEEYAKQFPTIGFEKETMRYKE

[3] = target: T2, AtSHMT4 (Arabidopsis thaliana, UniProt O23254); test: as above; format: biochemical; conditions: AtSHMT4, pH 9.5, 30 mM L-serine fixed, 30 °C
T2 construct: The open reading frames coding for AtSHMT2 41–517 fragment and full-length AtSHMT4 were amplified; His6 (N, cleaved yes); made in house; host or cells: E. coli BL21 Gold
T2 sequence (O23254 1-471): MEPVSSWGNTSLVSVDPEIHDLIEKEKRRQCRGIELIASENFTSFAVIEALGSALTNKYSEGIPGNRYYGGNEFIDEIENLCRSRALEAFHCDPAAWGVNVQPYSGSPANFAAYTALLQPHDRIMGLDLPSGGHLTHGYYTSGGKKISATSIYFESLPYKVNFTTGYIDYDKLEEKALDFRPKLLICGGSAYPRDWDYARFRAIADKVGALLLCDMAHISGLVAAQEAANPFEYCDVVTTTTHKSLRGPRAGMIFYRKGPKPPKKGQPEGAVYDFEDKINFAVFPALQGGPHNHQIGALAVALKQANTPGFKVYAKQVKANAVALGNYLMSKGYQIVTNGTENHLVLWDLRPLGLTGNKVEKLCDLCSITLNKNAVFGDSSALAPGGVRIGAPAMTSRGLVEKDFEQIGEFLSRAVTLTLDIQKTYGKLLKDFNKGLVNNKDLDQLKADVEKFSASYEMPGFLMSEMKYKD

Nc1nc2[nH]cc(CCc3ccc(C(=O)N[C@@H](CCC(=O)O)C(=O)O)cc3)c2c(=O)[nH]1 [PTX, pemetrexed]
Ki [1]: 109 nM

tetrahydrofolate [THF]
Km ([2]; AtSHMT2, pH 7, 30 mM L-serine fixed): 154 ± 10.9 µM
Km ([2]; AtSHMT2, pH 8, 30 mM L-serine fixed): 144 ± 12.6 µM
Km ([2]; AtSHMT2, pH 8.5, 30 mM L-serine fixed): 196 ± 14.6 µM
Km ([2]; AtSHMT2, pH 9.5, 30 mM L-serine fixed): 192 ± 10.4 µM
Km [3]: 49.2 ± 6.62 µM
